Among the data in publication PMC6421407, “Activation of GCN2 by the ribosomal P-stalk” (Proceedings of the National Academy of Sciences of the …, 2019) are EC50 for activation of GCN2-mediated phosphorylation of eIF2α, titration of the P-stalk complex and fold increase in GCN2 activity (eIF2α phosphorylation) values, retold here.

For this experiment, the target named is human general control nonderepressible 2 (GCN2), full-length, StrepII-tagged (human) (UniProt Q9P2K8).

Substance “recombinant human P-stalk complex, full-length (uL10/P1/P2 heteropentamer: uL10 bound to two P1-P2 heterodimers) (from UniProt P05388 1-317; P05386 1-114; P05387 1-115)” yielded an EC50 for activation of GCN2-mediated phosphorylation of eIF2α, titration of the P-stalk complex of 250 nM and a fold increase in GCN2 activity (eIF2α phosphorylation) at the highest P-stalk concentration measured (2.5 μM) of 40 fold.
